# Screens: PubChem, National Center for Advancing Translational Sciences (NCATS)
# Nrf2 ARE act: activators of Nrf2 (ARE) signaling; 410,000 compounds, 0.31% hits; Potency, µM (titrated, usually from 46.1 µM), without a hit: top-dose activation, actives largely listed as activators; AREc32 ARE-luciferase reporter (MCF7-derived line), luminescence, 24 h; also: potency is read from the fitted curve at half-maximal effect; % of control where 0% means no effect; nearly all actives have a fitted effect of over 65% in size
#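 Steps: seed AREc32_Fluc cells (1000/well, 5% FBS OPTI-MEM); incubate overnight at 37 deg C; add 23 nL compound; incubate 24 hr; add Steady-Glo; hold 30 min RT; read luminescence.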
# Nrf2 inh: blocks Nrf2 signaling. A549 ARE-Fluc reporter, luciferase luminescence, 18-24 h. Potency, µM (doses to about 46 µM), for the others: at the top dose activity change, negative = inhibition, most hits filed as inhibitors. 360,000 compounds, 2.1% hits. AID 504444; also: potency is read from the fitted curve at half-maximal effect; % is scaled to controls: 0 for no effect and ±100 for the full control effect; nearly all actives have a fitted effect of over 60% in size
#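 A549 ARE_Fluc cells (5000/well, 5% FBS OPTI-MEM) pre-incubated 2 h, then treated with compounds 18-24 h at 37C/5% CO2 in concentration-response. CellTiter-Fluor viability read first; BugLite luciferase luminescence after 15 min at room temperature gives Nrf2 activity.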
# TCR act: T cell receptor activation | primary human leukocytes, anti-CD3, IL-2 HTRF, 48 h | AID 504894 | Potency, µM (series often up to 9.22 µM), without a hit: at the top dose activation of IL-2 secretion, usual class: activators | 330,000 tested, under 10 active; also: % of control where 0% means no effect
#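 Human primary leukocytes + a-CD3 beads + cpd, 48 hr; IL-2 in supernatant by HTRF (ex 320nm / em 665nm). No co-stimulatory signal supplied.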
# ClpP mod: qHTS Assay for Activators of ClpP; Potency, µM (top dose mostly 57.5 µM), for inactives: top-dose activity change, negative = active; purified B. subtilis ClpP, FRET peptide cleavage, 20 min; ATP-dependent Clp protease proteolytic subunit (Bacillus subtilis (strain 168)), P80244; 340,000 compounds, 1.9% hits; active = well fitted falling curve with a large enough effect; inconclusive = small, poorly fitted or top-dose-only effect; inactive = no such curve, though single readings can be large or run the other way; also: potency is read from the fitted curve at half-maximal effect; the source files actives as falling curves though it sought activators and does not explain the sign; nearly all actives have a fitted effect of over 65% in size
#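 FRET quenching reversal measured ClpP activation: 10 microg/mL B. subtilis ClpP at pH 8 with the FRET-FV decapeptide, read at 430 nm after 320 nm excitation. The 20-min minus 0-min signal was scaled between DMSO/no-enzyme wells and ADEP (5.8 microM final).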
# A549 viability: counter-screen for Nrf2 inhibitors: cytotoxicity in A549 cells; A549 ARE-Fluc cells, CellTiter-Fluor viability, 18-24 h; Potency, µM (top dose mostly 46 µM), inactives show at the top dose activity change, negative = cytotoxicity, usual class: inhibitors; 390,000 compounds, 0.16% hits; also: potency is read from the fitted curve at half-maximal effect; % is scaled to controls: 0 for no effect and ±100 for the full control effect
#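 A549 ARE-Fluc cells in 5% FBS OPTI-MEM, 5000 cells/well, rested 2 h then exposed to compounds in concentration-response for 18-24 h at 37 °C. Viability by CellTiter-Fluor fluorescence (Ex 405/Em 525) after 30 min; luciferase luminescence (BugLite, 15 min, RT) read afterwards.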
# miR-21 reporter: miR-21 reporter, rising signal; Potency, µM (titrated, usually from 38.3 µM), without a hit: at the highest dose reporter change, positive = more light; AID 2288; 340,000 tested, under 10 active; HeLa miR-21 FLuc reporter, luciferase, 48 h; active = well fitted rising curve with a large enough effect; inconclusive = small, poorly fitted or top-dose-only effect; inactive = no such curve, though single readings can be large or run the other way;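 note: % of control where 0% means no effect; miR-21 action dims this reporter so a rising signal means less miR-21 action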
#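 Compounds were titrated across several concentrations (up to approximately 40 uM) and incubated 48 hours with HeLa miR-21-FLuc reporter cells (miR-21 target sequence downstream of FLuc, endogenous miR-21). Readout was firefly luciferase luminescence after lytic detection reagent.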
# Active calls of the source: *; ? = inconclusive; · = not tested or not shown; [ ] = dose if it differs, or a comment. This is a sample that favours compounds with a hit; in the whole collection about 3.7% have one here. Unless noted, calls follow the shape of the dose curve; as a rule, active = well fitted curve in the direction sought with a large enough effect; inconclusive = small, poorly fitted or top-dose-only effect, or another doubt; inactive = no such curve, though single readings can be large; an effect the other way counts as inactive or inconclusive.
1	CC1CCN(c2ccc(C(=O)Nc3ccc4c(c3)OCO4)cc2[N+](=O)[O-])CC1
2	CC1CCCN(c2ccc(C(=O)Nc3ccc4c(c3)OCO4)cc2[N+](=O)[O-])C1 (stereo unspecified)
3	CCCOc1cccc(C(=O)Nc2ccc(-c3nc4ccccc4o3)cc2)c1
4	Cn1cc([N+](=O)[O-])c(C(=O)Nc2ccc(-c3nc4ccccc4o3)cc2)n1
5	Cc1ccc(NC(=O)CSc2nc(=O)n(Cc3ccccn3)c3c2CCC3)cc1F
6	O=C(NCc1cccn1Cc1ccccc1)Nc1ccc(Br)cc1F
entry no.	1	2	3	4	5	6
TCR act	4%	4%	·	-4%	·	·
miR-21 reporter	8%	6%	-15%	-68%	6%	-7%
ClpP mod	·	1%	4%	-3%	-8%	-2%
Nrf2 inh	9.2µM*	?	?	0%	·	?
Nrf2 ARE act	2%	3%	-1%	5µM*	4%	-1%
A549 viability	-8%	-5%	-7%	0%	1%	-7%

7	CC(C)(C)c1ccc(OCCn2cc(C(=O)c3ccco3)c3ccccc32)cc1
8	CCN(CC)c1ccc(-c2c(C#N)c(N)nc(OC)c2C#N)cc1
9	Cc1ccc(N[S+](=O)([O-])c2cc3c(cc2CCc2ccccc2)NC(=O)CO3)cc1C
10	Cc1ccc(C)c(NC(=O)Cn2c(=O)n(Cc3ccccc3)c(=O)c3oc4ccccc4c32)c1
11	Cc1ccc(C)c(NC(=O)Cn2c(=O)n(Cc3ccco3)c(=O)c3oc4ccccc4c32)c1
12	O=C(CC(=O)c1ccccc1)Nc1ccccc1C(F)(F)F
entry no.	7	8	9	10	11	12
TCR act	·	·	·	·	·	4%
miR-21 reporter	19%	-10%	·	-1%	0%	-28%
ClpP mod	?	32µM*	·	-8%	32µM*	·
Nrf2 inh	-29%	-28%	-1%	-21%	-14%	16µM*
Nrf2 ARE act	1%	2%	·	0%	3%	3%
A549 viability	-5%	11%[1.84 µM]	-3%	4%	-1%	0%

13	CCC(=O)NC(=S)Nc1ccccc1C(F)(F)F
14	CCCC(=O)NC(=S)Nc1ccccc1C(F)(F)F
15	O=C(COc1ccc(C(=S)N2CCCC2)cc1)Nc1ccccc1C(F)(F)F
16	CCn1c(C)nc2cc(C(=O)NNC(=O)CN(C)S(=O)(=O)c3ccc(NC(C)=O)cc3)ccc21
17	O=C(COc1ccc2c(c1)OCO2)Nc1nncs1
18	Cc1cc(N/N=C/c2cccc(Cl)c2)nc(-n2nc(C)cc2C)n1
entry no.	13	14	15	16	17	18
TCR act	9%	-6%	·	-15%	6%	2%
miR-21 reporter	·	-4%	-4%	·	-20%	1%
ClpP mod	32µM*	1%	-3%	-23%	·	-1%
Nrf2 inh	·	4%	23µM*	?	?	16µM*
Nrf2 ARE act	3%	-1%	3%	-1%	0%	0%
A549 viability	0%	-7%	?	-4%	1%	-21%

# In another format: entries from further up.
no.	structure	TCR act	miR-21 reporter	ClpP mod	Nrf2 inh	Nrf2 ARE act	A549 viability
14	CCCC(=O)NC(=S)Nc1ccccc1C(F)(F)F	-6%	-4%	1%	4%	-1%	-7%
15	O=C(COc1ccc(C(=S)N2CCCC2)cc1)Nc1ccccc1C(F)(F)F	·	-4%	-3%	23µM*	3%	?
16	CCn1c(C)nc2cc(C(=O)NNC(=O)CN(C)S(=O)(=O)c3ccc(NC(C)=O)cc3)ccc21	-15%	·	-23%	?	-1%	-4%
17	O=C(COc1ccc2c(c1)OCO2)Nc1nncs1	6%	-20%	·	?	0%	1%

# (cont.)
19	Cc1ccc(-n2nc3ccc(NC(=O)/C=C/c4ccco4)cc3n2)cc1
20	Cc1cc(C)c2oc(-c3ccc(C)c(NC(=O)/C=C/c4ccco4)c3)nc2c1
21	COc1ccc(-c2cnc3c(c2)CCC3(C#N)C#N)cc1
22	COc1ccc(-c2ccc(OC)cc2)cc1
23	COc1cc(C(O)c2nc(-c3cccc(NC(C)=O)c3)cs2)ccc1F (stereo unspecified)
24	COc1ccc2c(=O)cc(-c3ccncc3)oc2c1OC
entry no.	19	20	21	22	23	24
TCR act	1%[46.1 µM]	·	1%[46.1 µM]	3%[46.1 µM]	·	-2%
miR-21 reporter	-22%	-21%	16%	-8%	·	·
ClpP mod	28µM*	4%	16µM*	-7%	2%	·
Nrf2 inh	?	23%	15%	?	·	16µM*
Nrf2 ARE act	?	5.6µM*	7%	0%	4%	5%
A549 viability	-19%	-4%	-7%	-4%	·	-20%

25	Cc1c(NC(=O)Nc2ccccc2C(F)(F)F)sc2nc3n(c(=O)c12)CCC(C)CC3 (stereo unspecified)
26	CCCOc1ccc(N2CC(C(=O)Nc3cccc(Cl)c3Cl)CC2=O)cc1 (stereo unspecified)
27	Cc1ccc(C)c(CSc2nnc(C)n3c2cc2sccc23)c1
28	O=C(CCSc1ccc(Br)cc1)c1ccc(O)cc1
29	O=C(CCO)c1ccc(O)cc1
30	CCCCN(CCCC)CCNC(=O)Cn1nc(C)n2c(cc3sccc32)c1=O
entry no.	25	26	27	28	29	30
TCR act	·	·	·	6%	-37%	·
miR-21 reporter	2%	0%	-13%	10%	3%	0%
ClpP mod	-2%	0%	?	1%	-5%	-8%
Nrf2 inh	-12%	?	26µM*	?	-2%	?
Nrf2 ARE act	-1%	0%	1%	16µM*	-1%	0%
A549 viability	-14%	1%	-1%	3%	1%	-9%

31	O=C(COc1nnc2ccccn12)N1CCN(S(=O)(=O)c2ccccc2)CC1
32	O=C(COc1cccnc1[N+](=O)[O-])N1CCN(S(=O)(=O)c2ccccc2)CC1
33	Cc1ccc(NC(CC(=O)c2ccccc2)C(=O)O)cc1Cl (stereo unspecified)
34	O=C(N=Nc1c(O)[nH]c2ccccc12)c1cccc(S(=O)(=O)N2CCCCC2)c1
35	CC(C)c1ccc2[nH]c(O)c(N=NC(=O)c3cccc(S(=O)(=O)N4CCCCC4)c3)c2c1
36	CCN(CC)CCOC(=O)c1ccc(NC(=O)CCCN2C(=O)/C(=C/c3cccs3)SC2=S)cc1
entry no.	31	32	33	34	35	36
TCR act	0%	3%[46.1 µM]	2%	-4%[46.1 µM]	2%[46.1 µM]	4%
miR-21 reporter	·	-11%	-57%	-1%	-6%	5%
ClpP mod	32µM*	4%	-2%	1%	-1%	-3%
Nrf2 inh	0%	-13%	?	-9%	18µM*	5%
Nrf2 ARE act	0%	0%[9.22 µM]	18µM*	0%	0%	27%
A549 viability	-6%	1%	0%	3%	?	?

37	COc1ccc(-c2ccc(-c3noc(-c4ccccc4)n3)c(OC)n2)cc1
38	COc1nc(-c2ccccc2)ccc1-c1noc(-c2ccco2)n1
39	COc1ccc(-c2ccc(-c3noc(-c4ccco4)n3)c(OC)n2)cc1
40	CCOc1nc(-c2ccc(C)cc2)ccc1-c1noc(COC)n1
41	COc1nc(-c2ccccc2)ccc1-c1noc(COc2ccccc2)n1
42	CC1(Oc2cccc(F)c2)CCN(Cc2ccc(-c3ccccn3)cc2)C1 (stereo unspecified)
43	COc1nc(-c2ccccc2)ccc1-c1noc(-c2cccs2)n1
44	CCOc1cc(/C=C2\COc3ccccc3C2=O)cc(Br)c1OCC(=O)N(C)C
45	Clc1ccc(CN(CCCNc2ncnc(NCCCc3cnc[nH]3)n2)c2ccc(Br)cn2)cc1Cl
entry no.	37	38	39	40	41	42	43	44	45
TCR act	·	-62%	-1%[46.1 µM]	6%	-117%	·	·	0%	·
miR-21 reporter	-18%	-55%	-45%	-17%	-14%	·	·	?	·
ClpP mod	84%	32µM*	28µM*	32µM*	10µM*	-1%	20µM*	·	·
Nrf2 inh	10%	?	?	-4%	-4%	·	5%	-19%	?
Nrf2 ARE act	0%	20%	12%	0%	-1%	0%[9.22 µM]	18%	?	·
A549 viability	0%[1.84 µM]	16%	-29%	0%	0%	·	-10%	-3%	-17%
